The source made the active and inactive calls. No cut-off for these calls is given here.
How the values were obtained:
[1] = molecular target: Son of sevenless homolog 1 (Homo sapiens, UniProt Q07889); assay: Activation of SOS1 in human NCI-H727 cells expressing KRAS G12V mutant assessed as induction of ERK1/2 T202/Y204 phosphorylation incubated for 30 mins by In-cell Western assay; format: cell-based
[2] = molecular target: T1, Son of sevenless homolog 1 (Homo sapiens, UniProt Q07889); assay: Activation of SOS1 in human HeLa cells expressing wild type KRAS assessed as induction of ERK1/2 T202/Y204 phosphorylation incubated for 30 mins by In-cell Western assay; format: cell-based
T1 sequence (Q07889 whole entry): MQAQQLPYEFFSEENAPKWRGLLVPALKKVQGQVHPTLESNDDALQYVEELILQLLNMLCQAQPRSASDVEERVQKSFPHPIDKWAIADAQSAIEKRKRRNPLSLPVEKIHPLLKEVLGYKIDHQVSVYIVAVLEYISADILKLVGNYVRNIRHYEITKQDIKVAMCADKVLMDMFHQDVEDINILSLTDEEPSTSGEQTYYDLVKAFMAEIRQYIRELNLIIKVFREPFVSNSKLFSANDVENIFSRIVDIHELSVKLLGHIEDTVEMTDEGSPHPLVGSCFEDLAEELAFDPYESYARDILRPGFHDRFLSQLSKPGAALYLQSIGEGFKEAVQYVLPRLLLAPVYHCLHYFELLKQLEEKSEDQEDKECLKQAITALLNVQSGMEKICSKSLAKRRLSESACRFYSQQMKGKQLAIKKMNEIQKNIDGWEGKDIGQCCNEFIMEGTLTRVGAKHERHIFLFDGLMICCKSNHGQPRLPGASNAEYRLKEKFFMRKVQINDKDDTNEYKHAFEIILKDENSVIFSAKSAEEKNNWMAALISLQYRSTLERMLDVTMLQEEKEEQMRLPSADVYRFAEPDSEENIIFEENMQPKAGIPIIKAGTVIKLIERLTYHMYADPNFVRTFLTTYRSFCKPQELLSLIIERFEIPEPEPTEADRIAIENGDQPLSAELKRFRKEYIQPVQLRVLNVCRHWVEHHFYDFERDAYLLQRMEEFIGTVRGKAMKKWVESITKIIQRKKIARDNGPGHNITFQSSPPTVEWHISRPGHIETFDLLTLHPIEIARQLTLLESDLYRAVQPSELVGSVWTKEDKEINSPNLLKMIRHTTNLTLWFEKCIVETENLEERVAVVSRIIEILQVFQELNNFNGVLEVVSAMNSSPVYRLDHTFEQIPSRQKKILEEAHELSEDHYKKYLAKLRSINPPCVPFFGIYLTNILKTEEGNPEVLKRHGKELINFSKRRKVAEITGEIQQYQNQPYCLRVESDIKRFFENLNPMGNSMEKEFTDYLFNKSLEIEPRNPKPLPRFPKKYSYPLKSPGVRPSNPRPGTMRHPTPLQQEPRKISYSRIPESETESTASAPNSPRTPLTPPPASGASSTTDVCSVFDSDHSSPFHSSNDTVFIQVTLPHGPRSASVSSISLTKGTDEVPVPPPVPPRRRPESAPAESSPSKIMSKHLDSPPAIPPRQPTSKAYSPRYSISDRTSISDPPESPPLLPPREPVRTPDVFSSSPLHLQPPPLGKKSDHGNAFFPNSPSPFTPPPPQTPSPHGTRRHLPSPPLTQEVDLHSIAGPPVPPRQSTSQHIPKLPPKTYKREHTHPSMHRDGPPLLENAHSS

[3] = molecular target: T1, Son of sevenless homolog 1; assay: Binding affinity to human recombinant N-terminal His6-tagged SOS1 (564 to 1049 residues) expressed in BL21-RIL Escherichia coli by fluorescent probe S2 based fluorescence polarization anisotrophy saturation binding assay
[4] = molecular target: T2, Son of sevenless homolog 1 (Homo sapiens) (UniProt Q07889); assay: Activation of SOS1 in human NCI-H727 cells expressing KRAS G12V mutant assessed as induction of ERK1/2 T202/Y204 phosphorylation at 1.5 to 100 uM (higher range) incubated for 30 mins by In-cell Western assay; format: cell-based
T2 sequence (whole entry): T1 sequence (Q07889 whole entry)

[5] = molecular target: T2, Son of sevenless homolog 1 (Homo sapiens); assay: Activation of SOS1 in human NCI-H727 cells expressing KRAS G12V mutant assessed as induction of ERK1/2 T202/Y204 phosphorylation at 1.5 to 100 uM (lower range) incubated for 30 mins by In-cell Western assay; format: cell-based
[6] = molecular target: T2, Son of sevenless homolog 1 (Homo sapiens); assay: Biphasic activity at of SOS1 in human HeLa cells expressing wild type KRAS assessed as induction of ERK1/2 T202/Y204 phosphorylation at 1.5 to 100 uM (lower range) incubated for 30 mins by In-cell Western assay; format: cell-based
[7] = molecular target: T2, Son of sevenless homolog 1 (Homo sapiens); assay: Biphasic activity at of SOS1 in human HeLa cells expressing wild type KRAS assessed as reduction in ERK1/2 T202/Y204 phosphorylation at 1.5 to 100 uM (higher range) incubated for 30 mins by In-cell Western assay; format: cell-based

With `Cc1cc(Cn2c(N3CCNCC3)nc3c(-c4c(C)n[nH]c4C)cc(Cl)cc32)cc(C)c1F` the EC50 [1] was 15.6 µM, the EC50 [2] was 9 µM and the Kd [3] was < 0.1 µM. For the same molecule, the Activity [4] was “Active”, the Activity [5] was “Active” and the Activity [6] was “Active”. The Activity [7] was “Active”.

— ChEMBL document CHEMBL4196202, “Discovery and Structure-Based Optimization of Benzimidazole-Derived Activators of SOS1-Mediated Nucleotide Exchange on RAS” (J Med Chem, 2018)
